Data published in patent US11807693B2 (priority 2014, dated 2023).

Assays:
rat APJ receptor = target: T1, rat APJ receptor (Rattus norvegicus, UniProt Q9JHG3); test: [35S] GTPγS assay, rat APJ receptor; type: biochemical
T1 construct: expressed in transfected cells
T1 sequence (Q9JHG3 1-377): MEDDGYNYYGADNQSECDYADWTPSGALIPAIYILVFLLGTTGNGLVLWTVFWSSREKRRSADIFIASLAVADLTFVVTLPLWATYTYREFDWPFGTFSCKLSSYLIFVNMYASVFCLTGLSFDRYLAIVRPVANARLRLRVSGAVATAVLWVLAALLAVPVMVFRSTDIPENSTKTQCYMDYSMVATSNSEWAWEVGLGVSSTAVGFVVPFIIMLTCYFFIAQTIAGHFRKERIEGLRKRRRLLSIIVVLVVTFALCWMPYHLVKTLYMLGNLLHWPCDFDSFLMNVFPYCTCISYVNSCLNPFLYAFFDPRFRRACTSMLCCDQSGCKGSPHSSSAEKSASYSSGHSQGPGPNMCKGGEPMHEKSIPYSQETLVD
Method: The membranes were incubated with modified peptides in the assay buffer. […] Bound [^35S] GTPγS was separated from free radiolabel by filtration. The filter bound radioactivity was determined by liquid scintillation counting.

human APJ receptor = target: T2, human APJ receptor (Homo sapiens, UniProt P35414); test: [35S] GTPγS assay, human APJ receptor; type: biochemical
T2 construct: expressed in transfected cells
T2 sequence (P35414 1-380): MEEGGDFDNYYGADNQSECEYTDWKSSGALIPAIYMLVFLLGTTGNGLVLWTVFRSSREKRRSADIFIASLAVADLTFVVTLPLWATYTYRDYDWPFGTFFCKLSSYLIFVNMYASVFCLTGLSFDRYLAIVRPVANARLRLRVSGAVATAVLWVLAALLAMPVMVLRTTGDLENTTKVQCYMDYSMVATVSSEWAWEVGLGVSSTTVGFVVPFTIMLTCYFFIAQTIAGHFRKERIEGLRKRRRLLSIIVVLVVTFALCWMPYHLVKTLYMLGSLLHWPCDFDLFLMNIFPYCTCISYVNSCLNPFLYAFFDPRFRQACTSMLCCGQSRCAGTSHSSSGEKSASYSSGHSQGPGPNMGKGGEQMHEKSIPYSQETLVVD

Compound `CC[C@H](C)[C@H](NC(=O)[C@H](CC(C)C)NC(=O)[C@H](CCCNC(=N)N)NC(=O)[C@H](CCCCN)NC(=O)[C@H](Cc1ccc(O)cc1)NC(=O)[C@H](Cc1ccccc1)NC(=O)[C@H](CC(=O)O)NC(=O)[C@H](CO)NC(C)=O)C(=O)N[C@@H](CC(N)=O)C(=O)N[C@@H](CCCCN)C(=O)N[C@@H](C)C(=O)N[C@@H](CCCCN)C(=O)NCCOCCOCC(=O)NCCOCCOCC(=O)N[C@@H](CCCCNC(=N)N)C(=O)N[C@H](CCCNC(=N)N)C(=O)N[C@@H](CCC(N)=O)C(=O)N[C@@H](CCCCNC(=N)N)C(=O)N1CCC[C@H]1C(=O)N[C@H](CCCNC(=N)N)C(=O)N(C)[C@@H](CC(C)C)C(=O)N[C@@H](CO)C(=O)N[C@@H](Cc1c[nH]cn1)C(=O)N[C@@H](CCCCN)C(=O)NCC(=O)N1[C@H](C(=O)N[C@@H](Cc2ccc(I)cc2)C(=O)N2CCC[C@H]2C(=O)N[C@H](Cc2ccc(-c3ccccc3)cc2)C(=O)O)C[C@@H]2CCCC[C@@H]21` [compound 94] has an EC50 (rat APJ receptor) of 1.33 nM and an EC50 (human APJ receptor) of 1.34 nM.
